Data published in US20040152672A1, “Indole compounds useful for the treatment of cancer” (priority 2000, published 2004).

System: CLL cells
Experiment: Viability of CLL cells in culture, erythrocin B exclusion assay
Format: cell-based, human
Conditions: 10 nM of the agent plus 50 μM etodolac; FIG. 4

Structure (SMILES) | synergy with 50 μM etodolac against CLL cells
Nc1nc(Cl)nc2c1ncn2[C@H]1C[C@H](O)[C@@H](CO)O1 [2-chlorodeoxyadenosine, 2-chloro-2′-deoxyadenosine] | synergy
Nc1nc(F)nc2c1ncn2[C@@H]1O[C@H](CO)[C@@H](O)[C@@H]1O [fludarabine] | synergy
